miR-21 reporter: miR-21 reporter, rising signal; HeLa miR-21 FLuc reporter, luciferase, 48 h; Potency, µM (titrated, usually from 38.3 µM), for the others: at the top dose reporter change, positive = more light; 340,000 tested, under 10 active; AID 2288; active = well fitted rising curve with a large enough effect; inconclusive = small, poorly fitted or top-dose-only effect; inactive = no such curve, though single readings can be large or run the other way;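 also: % of control where 0% means no effect; miR-21 action dims this reporter so a rising signal means less miR-21 action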
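HeLa cells stably expressing CMV-driven firefly luciferase with a downstream miR-21 binding sequence, endogenously expressing miR-21, were treated with titrations (up to about 40uM final) for 48 hours at 37 degree Celsius. Luciferase luminescence was read after lysis.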
TDP1 cell noCPT: qHTS for Inhibitors of human tyrosyl-DNA phosphodiesterase 1 (TDP1): qHTS in cells in absence of CPT; DT40 Tdp1-/- hTDP1 cells, no CPT, ATP luminescence, 48 h; Potency, µM (top dose mostly 46.2 µM), without a hit: at the highest dose activity change, negative = growth inhibition, most hits filed as inhibitors; actives 15% (n = 420,000); AID 686978, 2013; note: potency is the fitted concentration of half-maximal effect; % is set by controls: 0 for no effect and ±100 for the full control effect; nearly all actives have a fitted effect of over 55% in size
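Readout: luminescence from CellTiter-Glo after 30 min in the dark at RT. Cells: DT40 Tdp1-/- with stable hTDP1, 400/well. Exposure: compounds alone, ≥48 hr, 37 °C.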
uPA surface inh: blocks generation of uPA at the cell surface; cell surface uPA generation assay, qHTS; Potency, µM (doses to about 38.3 µM), inactives show at the highest dose activity change, negative = inhibition, actives largely listed as inhibitors; actives 0.31% (n = 330,000); AID 540303; active = well fitted inhibition curve with a large enough effect; inconclusive = small, poorly fitted or top-dose-only effect; inactive = no such curve, though single readings can be large or run the other way; tested in mouse RAW 264.7 cells; note: potency is the fitted concentration of half-maximal effect; % is set by controls: 0 for no effect and ±100 for the full control effect; nearly all actives have a fitted effect of over 55% in size
TDP1 block: TDP1 (human) enzyme inhibition. Q9NUW8. recombinant TDP1, AlphaScreen DNA substrate cleavage. Potency, µM (top dose mostly 130 µM), for the others: top-dose activity change, negative = inhibition, most hits filed as inhibitors. actives 0.28% (n = 350,000); note: potency is the fitted concentration of half-maximal effect; % is set by controls: 0 for no effect and ±100 for the full control effect; nearly all actives have a fitted effect of over 40% in size
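AlphaScreen read-out: signal falls as enzyme removes the 3' tyrosine-FITC from a 5'-biotinylated DNA oligo (15 nM, 5 min, RT). Enzyme was E. coli-made recombinant Tdp1 at 1 nM, exposed to compound for 15 min beforehand; beads 10 ug/ml, 10 min.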
DT40 TDP1 CPT: DT40-hTDP1 cell growth loss with CPT. chicken DT40 Tdp1-/-;hTDP1 cells + 20 nM CPT, ATP luminescence, 48 h. Potency, µM (top dose mostly 46.2 µM), inactives show at the top dose activity change, negative = growth inhibition, actives largely listed as inhibitors. actives 12% (n = 420,000); note: potency is the fitted concentration of half-maximal effect; % is set by controls: 0 for no effect and ±100 for the full control effect; nearly all actives have a fitted effect of over 55% in size
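Chicken DT40 Tdp1-/- cells complemented with human TDP1, 400 cells/well, exposed to compounds plus 20 nM camptothecin for at least 48 h at 37 C; viability read as ATP content by CellTiter-Glo luminescence.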
Active calls of the source: *; [ ] = remark or other dose. Hits are enriched below; roughly 16% of the tested compounds scored in any of these assays. Unless noted, calls come from the whole dose curve; as a rule, active = well fitted curve in the direction sought with a large enough effect; inconclusive = small, poorly fitted or top-dose-only effect, or another doubt; inactive = no such curve, though single readings can be large; an effect the other way counts as inactive or inconclusive.

For N#C/C(=C\c1ccc(F)c(Br)c1)C(=O)NC1CC1 the results were miR-21 reporter -58%, TDP1 cell noCPT inconclusive, uPA surface inh 11% and DT40 TDP1 CPT inconclusive.
For N#C/C(=C\c1ccccc1[N+](=O)[O-])C(=O)NC1CCCCC1 the results were miR-21 reporter -6%, TDP1 cell noCPT 15µM*, uPA surface inh -4%, TDP1 block 6% and DT40 TDP1 CPT inconclusive.
Screening N#C/C(=C\c1cc(Br)ccc1F)C(=O)NC1CC1 returned miR-21 reporter 0%, TDP1 cell noCPT inconclusive, uPA surface inh -4%, TDP1 block 1% and DT40 TDP1 CPT 13µM*.
For N#C/C(=C\c1cccn1-c1ccccc1)C(=O)NC1CCCCC1 the results were miR-21 reporter 16%, TDP1 cell noCPT inconclusive, uPA surface inh 7%, TDP1 block 5% and DT40 TDP1 CPT inconclusive.
Cc1ccc(-c2[nH]ncc2/C=C(\C#N)C(=O)NC2CCCCC2)cc1 was read as miR-21 reporter 6%, TDP1 cell noCPT 21µM*, uPA surface inh -2%, TDP1 block 5% and DT40 TDP1 CPT inconclusive.
CC1=C(C(=O)N2CCOCC2)CC(CC(=O)NCCc2ccccn2)C(=O)N1Cc1ccc(C(C)(C)C)cc1 (stereo unspecified) was read as TDP1 cell noCPT -18% and DT40 TDP1 CPT -24%.
N#C/C(=C\c1cc(Cl)ccc1O)C(=O)NC1CCCCC1 was read as miR-21 reporter -1%, TDP1 cell noCPT inconclusive, TDP1 block 2% and DT40 TDP1 CPT inconclusive.
N#C/C(=C\c1cc(Cl)cc(Cl)c1O)C(=O)NC1CCCCC1 was read as miR-21 reporter -3%, TDP1 cell noCPT inconclusive, TDP1 block 0% and DT40 TDP1 CPT 21µM*.
`O=C(CSc1ccccc1)N1CCc2c([nH]c3ccccc23)C1c1ccc(F)cc1` (stereo unspecified) gave miR-21 reporter 28%, TDP1 cell noCPT inconclusive, TDP1 block 5% and DT40 TDP1 CPT inconclusive.
Cc1ccc(C2c3[nH]c4ccccc4c3CCN2C(=O)CCc2ccccc2)cc1 (stereo unspecified) was read as miR-21 reporter 22%, TDP1 cell noCPT 21µM*, TDP1 block 8% and DT40 TDP1 CPT inconclusive.

Next part; the last 4 above are carried over.
N#C/C(=C\c1cc(Cl)ccc1O)C(=O)NC1CCCCC1 was read as miR-21 reporter -1%, TDP1 cell noCPT inconclusive, TDP1 block 2% and DT40 TDP1 CPT inconclusive.
N#C/C(=C\c1cc(Cl)cc(Cl)c1O)C(=O)NC1CCCCC1 was read as miR-21 reporter -3%, TDP1 cell noCPT inconclusive, TDP1 block 0% and DT40 TDP1 CPT 21µM*.
`O=C(CSc1ccccc1)N1CCc2c([nH]c3ccccc23)C1c1ccc(F)cc1` (stereo unspecified) gave miR-21 reporter 28%, TDP1 cell noCPT inconclusive, TDP1 block 5% and DT40 TDP1 CPT inconclusive.
Cc1ccc(C2c3[nH]c4ccccc4c3CCN2C(=O)CCc2ccccc2)cc1 (stereo unspecified) was read as miR-21 reporter 22%, TDP1 cell noCPT 21µM*, TDP1 block 8% and DT40 TDP1 CPT inconclusive.
For CCOc1cccc(CC(=O)N2CCc3c([nH]c4ccccc34)C2c2ccc(C)cc2)c1OCC (stereo unspecified) the results were miR-21 reporter 18%, TDP1 cell noCPT 18µM*, TDP1 block 5% and DT40 TDP1 CPT inconclusive.
For CCOc1cccc(C2c3[nH]c4ccccc4c3CCN2C(=O)CSCc2ccc(F)cc2)c1 (stereo unspecified) the results were miR-21 reporter inconclusive, TDP1 cell noCPT 26µM*, TDP1 block 5% and DT40 TDP1 CPT 18µM*.
`CCc1ccccc1NC(=O)C(NS(=O)(=O)c1ccc2c(c1)CCC(=O)N2)c1ccccc1` (stereo unspecified) gave miR-21 reporter 5%, TDP1 cell noCPT inconclusive, TDP1 block 0% and DT40 TDP1 CPT -29%.
Cc1cc(C)cc(OCC(=O)N(Cc2cccs2)c2ccc(Cl)cc2)c1 was read as miR-21 reporter 10%, TDP1 cell noCPT inconclusive, TDP1 block -4% and DT40 TDP1 CPT inconclusive.
For COc1ccc(N(Cc2cccs2)C(=O)c2ccc(Br)o2)cc1 the results were miR-21 reporter -7%, TDP1 cell noCPT 18µM*, TDP1 block 3% and DT40 TDP1 CPT 15µM*.
`COc1ccc(N(Cc2cccs2)C(=O)COc2cc(C)c(Cl)c(C)c2)cc1` gave miR-21 reporter 8%, TDP1 cell noCPT inconclusive, TDP1 block -12% and DT40 TDP1 CPT inconclusive.
Screening Cc1ccc(N(Cc2cccs2)C(=O)COc2cccc(C)c2)cc1 returned miR-21 reporter -3%, TDP1 cell noCPT 23µM*, TDP1 block -6% and DT40 TDP1 CPT inconclusive.
For Cc1ccc(N(Cc2cccs2)C(=O)c2ccc(OC(C)C)cc2)cc1 the results were miR-21 reporter inconclusive, TDP1 cell noCPT inconclusive, TDP1 block -10% and DT40 TDP1 CPT 21µM*.
Screening COc1ccc(N(Cc2cccs2)C(=O)COc2cccc(C)c2C)cc1 returned miR-21 reporter 12%, TDP1 cell noCPT 18µM*, TDP1 block -3% and DT40 TDP1 CPT inconclusive.
`CCCN(Cc1cccs1)C(=O)Nc1ccc(OCC)cc1` gave miR-21 reporter 3%, TDP1 cell noCPT inconclusive, TDP1 block 3% and DT40 TDP1 CPT -22%.
`Cc1cccc(N2CC(C(=O)Nc3nnc(SCC(=O)Nc4cc(C)on4)s3)CC2=O)c1` (stereo unspecified) gave miR-21 reporter -4%, TDP1 cell noCPT -7%, uPA surface inh 9%, TDP1 block 3% and DT40 TDP1 CPT -1%.
For Cc1nn(-c2ccccc2)c(=S)n1-c1ccccc1 the results were miR-21 reporter 1%, TDP1 cell noCPT 13µM*, uPA surface inh -9%, TDP1 block 2% and DT40 TDP1 CPT 21µM*.
For Cc1nn(C)c(=S)n1-c1ccc(Cl)cc1 the results were miR-21 reporter 0%, TDP1 cell noCPT -11%, uPA surface inh -2%, TDP1 block -7% and DT40 TDP1 CPT -9%.
COc1ccc(C(=O)c2c(-c3cccc(C)c3)oc3ccc(N4CCOCC4)cc23)cn1 was read as miR-21 reporter -4%, TDP1 cell noCPT 15µM*, uPA surface inh inconclusive and DT40 TDP1 CPT inconclusive.
For COc1ccc(C(=O)c2c(-c3ccc(OC)cc3)oc3ccc(-c4ccc(OC)nc4)cc23)cc1 the results were TDP1 cell noCPT inconclusive, uPA surface inh 5% and DT40 TDP1 CPT inconclusive.
For Cc1cccc(NC(=O)c2cc(S(=O)(=O)NCCc3ccccc3)ccc2F)c1C the results were miR-21 reporter -2%, TDP1 cell noCPT -21%, TDP1 block -3% and DT40 TDP1 CPT 2%.
C=C1[C@H](C)CN(S(=O)(=O)C(C)(C)C)[C@H]1CCO was read as TDP1 cell noCPT 1%, uPA surface inh 3% and DT40 TDP1 CPT -25%.
Screening CC(C)(C)S(=O)(=O)N1C[C@@H]2CC/C=C\C/C=C\2[C@H]1CCO returned TDP1 cell noCPT 8.2µM*, uPA surface inh 7% and DT40 TDP1 CPT 13µM*.
For C=C(CCO)C1=CCN(S(=O)(=O)C(C)(C)C)[C@H]1CCO the results were TDP1 cell noCPT -3%, uPA surface inh 4% and DT40 TDP1 CPT -4%.
`CC(C)(C)S(=O)(=O)N1C[C@H]2CC/C=C\C/C=C\2[C@@H]1CCO` gave TDP1 cell noCPT 13µM* and DT40 TDP1 CPT 21µM*.
For COc1ccc(Cl)cc1-c1ccc(C(=O)O)s1 the results were TDP1 block -5%[234 µM].

Assay outcomes deposited in PubChem by National Center for Advancing Translational Sciences (NCATS).
